Data reported in PubChem BioAssay AID686978 (National Center for Advancing Translational Sciences (NCATS), 2013).
Only a part is listed here, and it is no random draw. Results filed as inconclusive are left out. Activity calls are given as the source filed them. Calls come from the whole dose curve; as a rule, active = well fitted inhibition curve with a large enough effect; inconclusive = small, poorly fitted or top-dose-only effect; inactive = flat fitted curve, though single readings scatter.

Test: qHTS for Inhibitors of human tyrosyl-DNA phosphodiesterase 1 (TDP1): qHTS in cells in absence of CPT; note: nearly all actives have a fitted effect of over 55% in size
Conditions: DT40 Tdp1-/- hTDP1 cells, no CPT, ATP luminescence, 48 h; series mostly up to 46.2 µM; activity change, negative = growth inhibition: at the top concentration
% is set by controls: 0 for no effect and ±100 for the full control effect; potency is the fitted concentration of half-maximal effect.

| SMILES | activity change, negative = growth inhibition | Potency |
| --- | --- | --- |
| CCNC(C)Cc1ccc2c(c1)OCO2 (stereo not drawn) | inactive: -19.9% [at 92.5 µM] | – |
| NC(=O)c1cc([N+](=O)[O-])cc([N+](=O)[O-])c1N | inactive: 2.19% | – |
| Cc1ccc(N/C(=N/P(=O)(N2CCOCC2)N2CCOCC2)N2CCOCC2)cc1 | inactive: -5.04% | – |
| CN(C)C(=O)OCCc1n(C)cc[n+]1C | inactive: 0.217% | – |
| CC(C)c1nc(Nc2ccccc2)n(P(=O)(N(C)C)N(C)C)n1 | – | active: 23.1 µM |
| COc1cc([N+](=O)[O-])c([N+](=O)[O-])cc1OC | – | active: 12.6 µM |
| CC(C)=N/N=C(\N)N[N+](=O)[O-] | inactive: -1.94% | – |
| CC(=O)C1=CCCC2CCC1N2 (stereo not drawn) | inactive: 0.805% | – |
| c1cc(-c2nn[nH]n2)ccc1-c1nn[nH]n1 | inactive: 6.52% | – |
| Nc1ccc([As](=O)(O)c2ccc(N)cc2)cc1 | inactive: 0.288% | – |
| CCN(/C(=N/P(=O)(N1CCOCC1)N1CCOCC1)N1CCOCC1)c1ccc(OC)cc1 | inactive: -12.8% | – |
| O=[N+]([O-])c1cccc2n[nH]nc12 | inactive: -13% | – |
| CC(=O)N1C2C3N(C(C)=O)C1C1N(C(C)=O)C(C(N1C(C)=O)N3C(C)=O)N2C(C)=O | inactive: -11.7% | – |
| Cc1ccc(NP(=O)(Oc2ccccc2)Oc2ccccc2)nc1 | inactive: -11.1% | – |
| COC(=O)C1(C)COP(=O)(Nc2ccccc2)OC1 (stereo not drawn) | inactive: -8.53% | – |
| O=C(O)CNc1ccc([As](=O)(O)O)cc1 | inactive: -5.04% | – |
| CC(C)(C)C(=O)NC(Sc1ccncn1)C(Cl)(Cl)Cl (stereo not drawn) | inactive: -17.9% | – |
| O=[N+]([O-])c1ncn(CCn2ncnc2[N+](=O)[O-])n1 | inactive: -5.32% | – |
| O=P(/N=c1/nc(-c2ccccc2)n(-c2ccccc2)s1)(Nc1ccccc1)Nc1ccccc1 | – | active: 11.2 µM |
| O=C(Nc1cc([As](=O)(O)O)ccc1O)c1ccccc1 | inactive: -1.97% | – |

| SMILES | activity change, negative = growth inhibition | Potency |
| --- | --- | --- |
| Cc1cc(C=O)ccc1N(CCCl)CCCl | inactive: -29.3% | – |
| O=P1(N(CCCl)CCCl)OCCCS1 (stereo not drawn) | inactive: -10.5% | – |
| O=[N+]([O-])c1ccc(Nc2ccc(Oc3ccc([N+](=O)[O-])cc3[N+](=O)[O-])cc2)c([N+](=O)[O-])c1 | – | active: 4.61 µM |
| Cc1cc(SC(NC=O)C(Cl)(Cl)Cl)ncn1 (stereo not drawn) | – | active: 18.4 µM |
| CCOC(=O)Nc1cccc([As](=O)(O)O)c1 | inactive: -5.25% | – |
| COP(=O)(OC)N1CC1c1ccccc1 (stereo not drawn) | inactive: -4.05% | – |
| CC1CCNP(=O)(N(CCCl)CCCl)O1 (stereo not drawn) | inactive: 1.72% | – |
| CCOC(=O)Nc1ccc([As](=O)(O)O)c(O)c1 | inactive: 16.5% | – |
| O=C(O)C(O)c1ccc(N(CCCl)CCCl)cc1 (stereo not drawn) | – | active: 4.11 µM |
| CCC(C)N(CC(C)C)C(=S)SC(NC(C)=O)C(Cl)(Cl)Cl (stereo not drawn) | – | active: 0.651 µM |
| CSc1ccc(Nc2c([N+](=O)[O-])cc([N+](=O)[O-])cc2[N+](=O)[O-])cc1 | – | active: 3.26 µM |
| O=C(OC1CN2CCC1CC2)c1cccc([N+](=O)[O-])c1 (stereo not drawn) | inactive: -1.17% | – |
| O=C(Nc1ccncc1[N+](=O)[O-])c1ccc([N+](=O)[O-])cc1[N+](=O)[O-] | – | active: 13 µM |
| O=C(COc1ccccc1)OC1CN2CCC1CC2 (stereo not drawn) | inactive: -2.93% | – |
| O=C(O)C(=O)c1ccc(N(CCCl)CCCl)cc1 | – | active: 9.2 µM |
| COC(=O)C1(C)COP(=O)(N2CCCC2)OC1 (stereo not drawn) | inactive: 16.4% | – |
| COP1(=S)c2c(C)nn(CCC#N)c2N=C(c2ccc(F)cc2)N1C (stereo not drawn) | inactive: -19.2% | – |
| COc1ccc(N/C(=N/P(=O)(N2CCOCC2)N2CCOCC2)N2CCOCC2)cc1 | inactive: 15.2% | – |
| COc1cc(I)ccc1[As](=O)(O)O | inactive: -28.7% | – |
| O=P1(N(CCCl)CCCl)OCCCN1CCCl (stereo not drawn) | inactive: 0.416% | – |

| SMILES | activity change, negative = growth inhibition | Potency |
| --- | --- | --- |
| Cc1cc(=O)[nH]c(N[N+](=O)[O-])n1 | inactive: -16.5% | – |
| O=[N+]([O-])c1cc([N+](=O)[O-])c(-c2ccn[nH]2)s1 | – | active: 9.2 µM |
| CC(C)NC(=O)NP(=O)(Oc1ccccc1)Oc1ccccc1 | inactive: -2.3% | – |
| O=C(OC1CN2CCC1CC2)c1cccc2[nH]cnc12 (stereo not drawn) | inactive: 1.73% | – |
| CCN(CC)C(=S)SC(NC=O)C(Cl)(Cl)Cl (stereo not drawn) | – | active: 3.26 µM |
| COC(=O)C1(C)COP(=O)(N2CCCCCC2)OC1 (stereo not drawn) | inactive: 0.0874% | – |
| ClCCSc1nnc(-c2cccnc2)o1 | inactive: -6.4% | – |
| O=Cc1ccc(NCCCl)cc1 | – | active: 7.94 µM |
| ClCCN(CCCl)c1ccc(CC2C=CC=C2)cc1 | – | active: 2 µM |
| [N-]=[N+]=NC1CCCCC1NC(=O)c1cc([N+](=O)[O-])cc([N+](=O)[O-])c1 (stereo not drawn) | – | active: 7.31 µM |
| Cc1ccc(OP(=O)(Nc2ccc([N+](=O)[O-])cn2)Oc2ccc(C)cc2)cc1 | inactive: -19.1% | – |
| O=[N+]([O-])c1ccc(-c2cc([N+](=O)[O-])c(O)c([N+](=O)[O-])c2)cc1 | inactive: -4.57% | – |
| COc1cc(C(=O)NCC2(N3CCOCC3)CCCCC2)ccc1OCC(C)C | – | active: 4.11 µM |
| O=[As](O)(c1ccc(O)cc1)c1ccccc1O | inactive: 1.36% | – |
| C[As](=O)(O)c1cccc(C(=O)O)c1 | inactive: -37.6% | – |
| CN(C(=O)Cc1ccc(Cl)c(Cl)c1)[C@H]1CC[C@@]2(CCCO2)C[C@@H]1N1CCCC1 | – | inactive |
| O=[N+]([O-])c1ccc2c(c1)nnn2O | inactive: -14.9% | – |
| CN(C)C(=O)c1cc([N+](=O)[O-])cc2c1-c1c(cc([N+](=O)[O-])cc1[N+](=O)[O-])C2=O | – | active: 1.84 µM |
